The target in this assay is QC (Homo sapiens, UniProt Q16769). Briefly: Continuous spectrophotometric assay of substrate conversion, human QC.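 As to all read-outs here: initial rates read at 30 °C in a microplate reader, with activity quantified against an ammonia calibration curve under the same assay conditions.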 Also on record: The cDNA of the mature QC starting with codon 38 was fused in frame with the plasmid encoded 6× histidine tag; 6x histidine tag; made in house; host or cells: Pichia pastoris X33 (pPICZαB); also E. coli M15 (pQE-31). Type of assay: biochemical. The following applies: for Ki / Ki*: n.i. = no inhibition; for Ki*: for substrate inhibition.

Protein sequences, listed by entry. Tags and fused reporters are not part of them. Residues count along the entry.
UniProt Q16769, 29-361: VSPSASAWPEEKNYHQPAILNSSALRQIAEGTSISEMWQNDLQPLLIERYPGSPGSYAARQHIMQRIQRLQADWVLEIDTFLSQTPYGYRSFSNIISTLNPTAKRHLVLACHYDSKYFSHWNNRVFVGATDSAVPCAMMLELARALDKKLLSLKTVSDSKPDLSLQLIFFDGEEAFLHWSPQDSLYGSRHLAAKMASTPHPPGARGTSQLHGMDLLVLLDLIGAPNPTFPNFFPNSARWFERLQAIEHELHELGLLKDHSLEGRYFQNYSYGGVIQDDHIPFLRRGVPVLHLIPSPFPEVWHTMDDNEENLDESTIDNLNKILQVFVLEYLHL

Where [1] appears, read: 0.05 M Tris-HCl, pH 8.0, 0.5 M KCl.

Where two headings read alike, the source gives them in different places.

`CC[C@H](C)[C@H](NC(=O)CNC(=O)[C@H](CCCNC(=N)N)NC(=O)[C@@H](N)CCC(N)=O)C(N)=O` [H-Gln-Arg-Gly-Ile-NH2]: for the setting “0.05 M Tris-HCl, pH 8.0”, the Km is 166 ± 13 µM, the kcat amounted to 31 ± 1 s⁻¹ and the Ki entry is “n.i”. Under setting [1], the Km turned out to be 91 ± 5 µM, the kcat was 29.8 ± 0.5 s⁻¹ and the Ki entry was “n.i”. Besides, where the note is “Table 6”, the “Ki*” value is on record as “n.i”. In addition, for the setting “Table 6, n.r. = not reactive”, the Km amounted to 143 ± 4 µM and the kcat is 33.5 ± 0.4 s⁻¹.

Take `N=C(N)NCCC[C@H](NC(=O)[C@@H](N)CCC(N)=O)C(=O)N[C@@H](Cc1ccc(O)cc1)C(=O)N[C@@H](Cc1ccccc1)C(N)=O` [H-Gln-Arg-Tyr-Phe-NH2]: for the setting “Table 6”, the “Ki*” value is reported as “n.i”. Moreover, for the setting “Table 6, n.r. = not reactive”, the Km amounted to 55 ± 2 µM and the kcat worked out at 29.6 ± 0.3 s⁻¹.

As to `CC[C@H](C)[C@H](NC(=O)CNC(=O)[C@H](CC(N)=O)NC(=O)[C@@H](N)CCC(N)=O)C(N)=O` [H-Gln-Asn-Gly-Ile-NH2], the “Ki*” value (Table 6) is reported as “n.i”. Further, under “Table 6, n.r. = not reactive”, the Michaelis-Menten constant (Km) amounted to 172 ± 5 µM and the catalytic constant (kcat) was 56.6 ± 0.5 s⁻¹.

Turning to `NC(=O)CC[C@H](NC(=O)[C@@H](N)CCC(N)=O)C(=O)N[C@@H](Cc1ccc(O)cc1)C(=O)N[C@@H](Cc1ccccc1)C(N)=O` [H-Gln-Gln-Tyr-Phe-NH2], where the note is “Table 6”, the “Ki*” value is given as “n.i”. For the setting “Table 6, n.r. = not reactive”, the Km is 41 ± 2 µM and the kcat stood at 41.4 ± 0.4 s⁻¹.

As to `C[C@H](NC(=O)[C@H](C)NC(=O)[C@H](CCC(=O)O)NC(=O)[C@@H](N)CCC(N)=O)C(N)=O` [H-Gln-Glu-Ala-Ala-NH2], under “Table 6”, the “Ki*” value is on record as “n.i”. Moreover, where the note is “Table 6, n.r. = not reactive”, the Km was determined as 77 ± 4 µM and the kcat came out at 46 ± 1 s⁻¹.

Regarding `C[C@H](NC(=O)[C@H](CCC(=O)O)NC(=O)[C@@H](N)CCC(N)=O)C(=O)N[C@@H](Cc1ccccc1)C(N)=O` [H-Gln-Glu-Ala-Phe-NH2], the “Ki*” value (Table 6) is reported as “n.i”. Moreover, for the setting “Table 6, n.r. = not reactive”, the Michaelis constant (Km) turned out to be 39 ± 3 µM and the catalytic constant (kcat) worked out at 39 ± 1 s⁻¹.

Turning to `CC(C)C[C@H](NC(=O)[C@H](CC(=O)O)NC(=O)[C@H](CCC(=O)O)NC(=O)[C@@H](N)CCC(N)=O)C(N)=O` [H-Gln-Glu-Asp-Leu-NH2], the Michaelis constant (Km) runs as follows: (0.05 M Tris-HCl, pH 8.0) 60 ± 2 µM; under setting [1], 61 ± 2 µM; (Table 6, n.r. = not reactive) 55 ± 2 µM. Also, the kcat was found to be 46.6 ± 0.5 s⁻¹ (0.05 M Tris-HCl, pH 8.0); 45.6 ± 0.5 s⁻¹ under setting [1]; 45.8 ± 0.5 s⁻¹ (Table 6, n.r. = not reactive). The Ki result by setting is: under setting [1], “n.i”; (0.05 M Tris-HCl, pH 8.0) “n.i”. Further, for the setting “Table 6”, the “Ki*” value is reported as “n.i”.

For the compound `C[C@H](NC(=O)[C@H](Cc1ccc(O)cc1)NC(=O)[C@H](CCC(=O)O)NC(=O)[C@@H](N)CCC(N)=O)C(N)=O` [H-Gln-Glu-Tyr-Ala-NH2], the “Ki*” value (Table 6) is “n.i”. Also, for the setting “Table 6, n.r. = not reactive”, the Km was 69 ± 2 µM and the catalytic constant (kcat) was 42.1 ± 0.4 s⁻¹.

`NC(=O)CC[C@H](N)C(=O)N[C@@H](CCC(=O)O)C(=O)N[C@@H](Cc1ccc(O)cc1)C(N)=O` [H-Gln-Glu-Tyr-NH2]: the Km turned out to be 79 ± 2 µM. Also, the “Ki*” value (Table 6) is on record as “n.i”. In addition, the kcat (Table 6, n.r. = not reactive) turned out to be 45.1 ± 0.4 s⁻¹.

As for `NC(=O)CC[C@H](N)C(=O)N[C@@H](CCC(=O)O)C(=O)N[C@@H](Cc1ccc(O)cc1)C(=O)N[C@@H](Cc1ccccc1)C(N)=O` [H-Gln-Glu-Tyr-Phe-NH2], under “Table 6”, the “Ki*” value is reported as “n.i”. Moreover, where the note is “Table 6, n.r. = not reactive”, the Km is 47 ± 4 µM and the kcat is 46 ± 1 s⁻¹.

Turning to `NC(=O)CC[C@H](N)C(=O)N[C@@H](Cc1c[nH]cn1)C(=O)N[C@@H](Cc1ccc(O)cc1)C(=O)N[C@@H](Cc1ccccc1)C(N)=O` [H-Gln-His-Tyr-Phe-NH2], the “Ki*” value (Table 6) is “n.i”. Also, where the note is “Table 6, n.r. = not reactive”, the Km was 68 ± 3 µM and the kcat was 55.4 ± 0.7 s⁻¹.

For `CC(C)C[C@H](NC(=O)[C@H](CCCNC(=N)N)NC(=O)[C@H](CCCCN)NC(=O)[C@@H](N)CCC(N)=O)C(N)=O` [H-Gln-Lys-Arg-Leu-NH2], for the setting “0.05 M Tris-HCl, pH 8.0”, the Km turned out to be 51 ± 3 µM, the catalytic constant (kcat) is 29.4 ± 0.5 s⁻¹ and the Ki entry is “n.i”. Besides, under setting [1], the Km amounted to 34 ± 1 µM, the kcat amounted to 31.6 ± 0.3 s⁻¹ and the Ki entry is given as “n.i”. Also, the “Ki*” value (Table 6) is recorded as “n.i”. Besides, for the setting “Table 6, n.r. = not reactive”, the Michaelis-Menten constant (Km) amounted to 54 ± 3 µM and the kcat turned out to be 33.4 ± 0.51 s⁻¹.

In the case of `C[C@H](NC(=O)[C@H](Cc1ccccc1)NC(=O)[C@@H](N)CCC(N)=O)C(N)=O` [H-Gln-Phe-Ala-NH2], the Km is 69 ± 3 µM. For the same compound, where the note is “Table 6”, the “Ki*” value is recorded as “n.i”. For the same compound, for the setting “Table 6, n.r. = not reactive”, the kcat was found to be 109 ± 1 s⁻¹.

For `NC(=O)CC[C@H](N)C(=O)N[C@@H](CO)C(=O)N[C@@H](Cc1ccc(O)cc1)C(=O)N[C@@H](Cc1ccccc1)C(N)=O` [H-Gln-Ser-Tyr-Phe-NH2], for the setting “Table 6”, the “Ki*” value is recorded as “n.i”. Also, under “Table 6, n.r. = not reactive”, the Km worked out at 55 ± 3 µM and the kcat turned out to be 52.8 ± 0.8 s⁻¹.

For the compound `C[C@H](NC(=O)[C@H](Cc1c[nH]c2ccccc12)NC(=O)[C@@H](N)CCC(N)=O)C(N)=O` [H-Gln-Trp-Ala-NH2], the kcat came out at 50.8 ± 0.6 s⁻¹ (0.05 M Tris-HCl, pH 8.0); 50.0 ± 0.4 s⁻¹ under setting [1]; 47.0 ± 0.7 s⁻¹ (Table 6, n.r. = not reactive). The Ki entry is, setting by setting: under setting [1], “n.i”; (0.05 M Tris-HCl, pH 8.0) “n.i”. The “Ki*” value (Table 6) is “n.i”.

Take `C[C@H](NC(=O)[C@H](Cc1ccc(O)cc1)NC(=O)[C@@H](N)CCC(N)=O)C(=O)O` [H-Gln-Tyr-Ala-OH]: the Km stood at 101 ± 4 µM. Further, the “Ki*” value (Table 6) is given as “n.i”. Moreover, where the note is “Table 6, n.r. = not reactive”, the kcat turned out to be 125 ± 1 s⁻¹.

The record behind these values is patent publication US7462599B2, “Use of effectors of glutaminyl and glutamate cyclases” (Probiodrug AG, priority 2003, dated 2008).
